This is an account of results in publication PMC5021139 (Journal of Neuroendocrinology, 2016).

The chains behind the UniProt entries cited, without tags or fusion partners. Where a name states a change or a piece, a line headed by the entry shows the natural chain unless it says otherwise.
UniProt P30559: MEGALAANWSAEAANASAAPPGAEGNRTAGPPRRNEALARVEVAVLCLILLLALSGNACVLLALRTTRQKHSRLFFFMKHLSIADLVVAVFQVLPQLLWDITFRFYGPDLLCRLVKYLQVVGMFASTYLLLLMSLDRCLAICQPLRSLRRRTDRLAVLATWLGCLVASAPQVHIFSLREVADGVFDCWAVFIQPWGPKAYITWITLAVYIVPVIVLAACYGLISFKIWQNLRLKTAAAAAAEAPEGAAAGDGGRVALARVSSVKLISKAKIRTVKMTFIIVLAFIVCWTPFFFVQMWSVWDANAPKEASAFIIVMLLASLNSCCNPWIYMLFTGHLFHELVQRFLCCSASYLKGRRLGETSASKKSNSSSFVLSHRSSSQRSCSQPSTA

The term EC50 denotes the concentration needed to bring the measured effect to its halfway point. High values mean a need for much substance, low ones an effect from little substance.

In experiment [1] the target is T1, human oxytocin receptor (hOXTR) (Homo sapiens, UniProt P30559). Description: cell-based.
Experiment [2] concerns the target T1, human oxytocin receptor (hOXTR). To be noted: OXTR/Gq, carbetocin vs oxytocin.

`CC[C@H](C)[C@@H]1NC(=O)[C@H](Cc2ccc(OC)cc2)NC(=O)CCCSC[C@@H](C(=O)N2CCC[C@H]2C(=O)N[C@@H](CC(C)C)C(=O)NCC(N)=O)NC(=O)[C@H](CC(N)=O)NC(=O)[C@H](CCC(N)=O)NC1=O` [carbetocin, deamino‐1‐monocarba‐(2‐O‐methyltyrosine)‐oxytocin]: the concentration for a half-maximal effect (EC50) in experiment [1] amounted to 0.0488 ± 0.0161 µM. Moreover, in experiment [2], the “EC50 right-shift compared to oxytocin” value was “five‐fold”.
